# Literature values as cited in patent publication US20120093882A1, “STABLE PHARMACEUTICAL COMPOSITIONS OF DICLOFENAC” (priority 2009, published 2012).
# Details: maximum, after 53 h of exposure to sunlight
smiles,measurement,value
O=C(O)Cc1ccccc1Nc1c(Cl)cccc1Cl [Diclofenac],phytotoxicity enhancement,six fold enhanced toxicity
